Among the data in patent EP0629400B1, “Idebenone compositions for treating Alzheimer's disease” (TAKEDA CHEMICAL INDUSTRIES, LTD., priority 1993, dated 1994) are LD50 values, retold here.

The series can be described thus: in vivo. To be noted: mouse.

Bounds are passed on as bounds.

In general, LD50 refers to the dose at which mortality reaches 50%. A lower LD50 goes with a more toxic substance. As to `COC1=C(OC)C(=O)C(CCCCCCCCCCO)=C(C)C1=O` [idebenone, 6-(10-hydroxydecyl)-2,3-dimethoxy-5-methyl-1,4-benzoquinone], the 50% lethal dose (LD50) is > 10000 mg/kg.
